Assay results as given in ChEMBL document CHEMBL1138707, “Bridgehead modification of trihalocycloheptabenzopyridine leads to a potent farnesyl protein transferase inhibitor with improved oral metabolic stability” (Bioorg Med Chem Lett, 2004).

Molecular target: Protein farnesyltransferase (Homo sapiens, UniProt P49354+P49356)
Test: Inhibition of [3H]FPP incorporation into H-ras CVLS by Farnesyltransferase
Type: protein-complex assay

| IC50 [nM] | SMILES |
| --- | --- |
| 16 | NC(=O)N1CCC(CC(=O)N2CCC([C@H]3c4ncc(Br)cc4C=Cc4cc(Cl)cc(Br)c43)CC2)CC1 |
| 3.3 | CS(=O)(=O)N1CCC([C@@H]2c3ncc(Br)cc3C=Cc3cc(Cl)cc(Br)c32)CC1 |
| 0.4 | NC(=O)N1CCC(CC(=O)N2CCC([C@@H]3c4ncc(Br)cc4C=Cc4cc(Cl)cc(Br)c43)CC2)CC1 |
